Biological target: Dual specificity protein kinase CLK1 (Homo sapiens, UniProt P49759)
Assay: Inhibition of CLK1 (unknown origin)

The chains behind the UniProt entries cited, without tags or fusion partners. Where a name states a change or a piece, a line headed by the entry shows the natural chain unless it says otherwise.
UniProt P49759: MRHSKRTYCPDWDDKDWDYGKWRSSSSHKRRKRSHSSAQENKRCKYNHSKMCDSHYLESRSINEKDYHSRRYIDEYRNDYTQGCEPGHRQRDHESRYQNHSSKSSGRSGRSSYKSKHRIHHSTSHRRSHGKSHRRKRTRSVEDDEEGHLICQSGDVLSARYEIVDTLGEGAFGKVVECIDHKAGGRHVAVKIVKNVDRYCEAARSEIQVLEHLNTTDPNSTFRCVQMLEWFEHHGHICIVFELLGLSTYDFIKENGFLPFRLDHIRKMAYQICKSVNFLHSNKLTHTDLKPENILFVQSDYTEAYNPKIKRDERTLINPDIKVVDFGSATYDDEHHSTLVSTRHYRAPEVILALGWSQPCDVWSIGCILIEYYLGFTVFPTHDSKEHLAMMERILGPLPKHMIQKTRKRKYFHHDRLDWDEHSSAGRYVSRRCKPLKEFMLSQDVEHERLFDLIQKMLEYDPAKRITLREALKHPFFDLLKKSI

IC50: 35 nM
SMILES: O=C1NC(Nc2ccccc2)=N/C1=C\c1ccc2c(c1)OCO2

— ChEMBL document CHEMBL6083232, “A review on synthetic inhibitors of dual-specific tyrosine phosphorylation-regulated kinase 1A (DYRK1A) for the treatment of Alzheimer's disease (AD)” (Bioorg Med Chem, 2024)
